Reference: PubChem BioAssay AID651957 (The Scripps Research Institute Molecular Screening Center, 2012)
Only a part is listed here, and it is no random draw. Calls of active or inactive are those of the source.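 How the source made its calls: active means inhibition above the mean inhibition of all tested compounds plus 3 SD, set per campaign (cut at about 52% in these data); inactive means the rest.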

Protein sequences, listed by entry. Tags and fused reporters are not part of them. Lines headed by an entry give the natural chain unless they say otherwise; changes in a name come on top.
UniProt Q15596: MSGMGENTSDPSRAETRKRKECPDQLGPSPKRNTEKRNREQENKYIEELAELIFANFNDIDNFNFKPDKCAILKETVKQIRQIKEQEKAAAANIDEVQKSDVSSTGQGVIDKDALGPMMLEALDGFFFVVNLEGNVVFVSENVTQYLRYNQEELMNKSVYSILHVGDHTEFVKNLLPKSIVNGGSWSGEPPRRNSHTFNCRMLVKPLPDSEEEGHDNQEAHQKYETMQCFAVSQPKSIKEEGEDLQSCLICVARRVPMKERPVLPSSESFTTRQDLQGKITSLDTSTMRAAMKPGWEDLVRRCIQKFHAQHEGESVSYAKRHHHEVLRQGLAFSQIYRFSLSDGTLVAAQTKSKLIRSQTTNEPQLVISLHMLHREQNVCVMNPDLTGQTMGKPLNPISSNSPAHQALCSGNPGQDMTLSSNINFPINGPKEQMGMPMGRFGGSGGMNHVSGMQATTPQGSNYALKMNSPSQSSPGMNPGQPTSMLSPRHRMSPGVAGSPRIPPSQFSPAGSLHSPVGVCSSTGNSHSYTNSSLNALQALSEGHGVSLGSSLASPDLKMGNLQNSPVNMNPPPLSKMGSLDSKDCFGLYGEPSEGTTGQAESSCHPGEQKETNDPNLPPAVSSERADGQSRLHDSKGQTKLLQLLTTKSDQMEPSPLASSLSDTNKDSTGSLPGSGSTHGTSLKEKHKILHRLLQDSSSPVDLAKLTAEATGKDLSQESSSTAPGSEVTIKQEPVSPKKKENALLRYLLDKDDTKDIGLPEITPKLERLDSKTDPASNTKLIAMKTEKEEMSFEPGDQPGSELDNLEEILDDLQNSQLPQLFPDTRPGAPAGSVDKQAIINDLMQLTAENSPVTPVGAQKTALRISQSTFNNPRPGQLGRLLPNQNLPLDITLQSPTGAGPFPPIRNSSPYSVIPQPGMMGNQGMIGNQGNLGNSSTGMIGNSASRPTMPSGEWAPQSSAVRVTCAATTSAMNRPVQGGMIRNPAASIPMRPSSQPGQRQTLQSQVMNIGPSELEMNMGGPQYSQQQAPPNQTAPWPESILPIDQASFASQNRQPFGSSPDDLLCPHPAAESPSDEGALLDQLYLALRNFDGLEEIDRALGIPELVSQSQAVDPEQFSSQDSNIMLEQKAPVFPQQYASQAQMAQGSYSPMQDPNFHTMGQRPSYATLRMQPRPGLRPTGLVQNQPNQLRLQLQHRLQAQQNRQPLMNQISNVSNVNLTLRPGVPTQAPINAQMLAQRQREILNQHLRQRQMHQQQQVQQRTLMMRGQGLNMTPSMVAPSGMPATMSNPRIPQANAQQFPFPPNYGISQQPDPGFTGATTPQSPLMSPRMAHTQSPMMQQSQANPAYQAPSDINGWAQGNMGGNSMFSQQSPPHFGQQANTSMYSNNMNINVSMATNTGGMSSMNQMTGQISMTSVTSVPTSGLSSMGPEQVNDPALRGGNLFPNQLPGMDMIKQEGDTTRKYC

Target: Nuclear receptor coactivator 2 (Homo sapiens) (UniProt Q15596)
Assay: inhibition of GAL4-SRC2 driven luciferase reporter, primary screen, SRC2 inhibitor project, cell-based, luminescence (AID 651957);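 further: 0% = DMSO treated cells and 100% = cells given Gossypol at 36 µM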
Settings: HEK293 GAL4-SRC2 luciferase reporter, at 9 µM, active compounds read high

Compound | inhibition
O=C(O)C(O)c1ccc(N(CCCl)CCCl)cc1 (stereo unspecified) | inactive: -2.39%
Cc1cc(SC(NC(=O)c2ccccc2)C(Cl)(Cl)Cl)nc(C(C)C)n1 (stereo unspecified) | inactive: -5.87%
CCCCOc1ccc(C(=O)NCC2(N3CCCCC3)CCCCC2)cc1OC | inactive: -31.9%
COP(=O)(OC)N1CC1c1ccccc1 (stereo unspecified) | inactive: 1.12%
CCOC(=O)Nc1cccc([As](=O)(O)O)c1 | inactive: -33.7%
O=[N+]([O-])c1ccc(Nc2ccc(Oc3ccc([N+](=O)[O-])cc3[N+](=O)[O-])cc2)c([N+](=O)[O-])c1 | inactive: -6.98%
O=P(Nc1ccccn1)(c1cccc2ccccc12)c1cccc2ccccc12 | inactive: 15%
Cc1cc(SC(NC=O)C(Cl)(Cl)Cl)ncn1 (stereo unspecified) | inactive: 0.11%
COC(=O)C1(C)COP(=O)(N2CCCC2)OC1 (stereo unspecified) | inactive: -51%
COP1(=S)c2c(C)nn(CCC#N)c2N=C(c2ccc(F)cc2)N1C (stereo unspecified) | inactive: -10.4%
O=C(Nc1ccncc1[N+](=O)[O-])c1ccc([N+](=O)[O-])cc1[N+](=O)[O-] | inactive: 16.9%
O=C(COc1ccccc1)OC1CN2CCC1CC2 (stereo unspecified) | inactive: 2.21%
O=C(O)C(=O)c1ccc(N(CCCl)CCCl)cc1 | inactive: 8.88%
CCOC(=O)c1ccc(NC(=O)C(C)(CCl)SC)cc1 (stereo unspecified) | inactive: 7.57%
O=C(OC1CN2CCC1CC2)c1cccc([N+](=O)[O-])c1 (stereo unspecified) | inactive: 3.74%
CCC(C)N(CC(C)C)C(=S)SC(NC(C)=O)C(Cl)(Cl)Cl (stereo unspecified) | inactive: -17.9%
Cc1cc(=O)[nH]c(N[N+](=O)[O-])n1 | inactive: 3.22%
O=C(OC1CN2CCC1CC2)C12CC3CC(CC(C3)C1)C2 (stereo unspecified) | inactive: -18.9%
Cc1c2c(nc3ccccc13)SC(C(Cl)Cl)C2 (stereo unspecified) | inactive: -10.6%
COc1cc(I)ccc1[As](=O)(O)O | inactive: 2.64%
COc1ccc2nc(NP(=O)(c3ccccc3)c3ccccc3)sc2c1 | inactive: -14.9%
O=P1(N(CCCl)CCCl)Nc2ccccc2N1 | inactive: -43.3%
O=P1(N(CCCl)CCCl)OCCCN1CCCl (stereo unspecified) | inactive: -5.01%
COc1ccc(N/C(=N/P(=O)(N2CCOCC2)N2CCOCC2)N2CCOCC2)cc1 | inactive: -21%
O=[N+]([O-])c1cc(Oc2ccc([N+](=O)[O-])cc2C(F)(F)F)cc([N+](=O)[O-])c1 | inactive: -18.5%
COc1cc(C(=O)NCC2(N3CCOCC3)CCCCC2)ccc1OCC(C)C | inactive: -8.49%

Compound | inhibition
O=[N+]([O-])c1ccc(-c2cc([N+](=O)[O-])c(O)c([N+](=O)[O-])c2)cc1 | inactive: 16.3%
C[As](=O)(O)c1cccc(C(=O)O)c1 | inactive: 6.94%
O=[As](O)(c1ccc(O)cc1)c1ccccc1O | inactive: -17.5%
Cc1ccc2nc3c(c(C)c2c1)CC(C(Cl)Cl)S3 (stereo unspecified) | inactive: -46.6%
[N-]=[N+]=NC1CCCCC1NC(=O)c1cc([N+](=O)[O-])cc([N+](=O)[O-])c1 (stereo unspecified) | inactive: 3.9%
Cc1ccc(OP(=O)(Nc2ccc([N+](=O)[O-])cn2)Oc2ccc(C)cc2)cc1 | inactive: -19.6%
CC(C)c1ccc(OP(=O)(Nc2ccccn2)Oc2ccccc2F)cc1 (stereo unspecified) | inactive: -15.5%
COC(=O)C1(C)COP(=O)(N2CCCCCC2)OC1 (stereo unspecified) | inactive: 13.9%
ClCCSc1nnc(-c2cccnc2)o1 | inactive: -34.1%
O=C(OC1CN2CCC1CC2)c1cccc2[nH]cnc12 (stereo unspecified) | inactive: -9.23%
CCN(CC)C(=S)SC(NC=O)C(Cl)(Cl)Cl (stereo unspecified) | inactive: -44.6%
CC(C)NC(=O)NP(=O)(Oc1ccccc1)Oc1ccccc1 | inactive: -6.24%
CCCC1OP(N)(=O)OCC1CC (stereo unspecified) | inactive: 1.13%
O=C(O)c1ccccc1[As](=O)(O)O | inactive: 8.89%
CC(=O)Nc1ccc([As](=O)(O)O)cc1 | inactive: 7.54%
CN(C)P(=O)(N(C)C)n1c(Nc2ccccc2)nnc1-c1ccccc1 | inactive: -33.6%
O=P(Nc1nc2ccc(Cl)cc2s1)(c1ccccc1)c1ccccc1 | inactive: -38.5%
Cc1ccc(NP(=O)(Oc2ccccc2F)Oc2ccccc2F)nc1 | inactive: 4.07%
CN(C(=O)Cc1ccc(Cl)c(Cl)c1)[C@H]1CCCC[C@@H]1N1CCCC1 | inactive: -12.5%
CCOP(=O)(Nc1ccccc1)OCC | inactive: -0.57%
Cc1cc(SC(NC(=O)c2ccc(F)cc2)C(Cl)(Cl)Cl)ncn1 (stereo unspecified) | inactive: -23.4%
CCn1c(=O)n(C2CCN(CC3CCCCCCC3)C[C@H]2CO)c2ccccc21 (stereo partly specified) | inactive: 28.7%
CCN(N=Nc1nonc1N)c1nonc1N | inactive: 21.5%
CN(C(=O)Cc1ccccc1)C1CC[C@@]2(CCCO2)C[C@@H]1N1CCCC1 (stereo partly specified) | inactive: 8.27%
Nc1cccc2ccc([As](=O)(O)O)cc12 | inactive: -9.66%
